Yeast mating assay B: variants of the scFv Ab-14

Antigen: PDVDLGDISGINAS, a 14-residue peptide of the SARS-CoV-2 spike HR2 region.

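The starting antibody came from a phage panning campaign against this peptide. This is the validation round: designs drawn from the data on random variants, tested in the same kind of assay. Their group label is 14L_Ctrl (Ctrl: baseline library sampled from a position-specific scoring matrix, with some repeated check sequences). AlphaSeq pools MATa yeast showing the antibodies with MATalpha yeast showing the peptide. Mating (16 h, 30 °C) was followed by selection of diploids and sequencing of their barcodes. Scores were corrected for input abundance and mapped to Kd with protein pairs of known affinity run in the same pool. Each pool was mated in six replicate cultures.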

Parent: Ab-14, a human scFv built as VH, the linker GGGGSGGGGSGGGGS, VL. Only the CDRs of the light chain vary.
VH: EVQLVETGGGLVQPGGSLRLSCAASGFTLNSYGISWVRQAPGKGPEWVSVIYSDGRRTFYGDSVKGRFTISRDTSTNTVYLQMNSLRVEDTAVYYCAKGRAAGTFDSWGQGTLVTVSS
VL: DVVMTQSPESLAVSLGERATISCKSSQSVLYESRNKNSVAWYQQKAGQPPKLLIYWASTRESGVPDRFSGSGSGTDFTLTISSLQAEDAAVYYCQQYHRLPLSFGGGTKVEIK

Variants are written as CDR1, CDR2 and CDR3 of the light chain (limits as in the source). Parent: KSSQSVLYESRNKNSVA, WASTRES, QQYHRLPLS. Scale: log10 of Kd in nM, estimated from mating counts; low values are strong binders. The mean shown is taken over the replicates in which the pair was detected. "n.d." marks a missing value. The strain was present, yet no cells mated with the target were sequenced in that replicate, which points to weak or no binding. The range of this assay differs from that of the first round, and the authors advise against merging the two.

{"CDR-L1": "RQSQSVLVESSNKSSVA", "CDR-L2": "SASTRES", "CDR-L3": "QQYHRLPLS", "log10 Kd, replicates": "1.40 0.85 1.49 1.41 1.13 1.37", "mean, log10 nM": "1.27", "control signals": "0 of 18"}
{"CDR-L1": "KSSQSVLEESRNKNSVA", "CDR-L2": "WASTRES", "CDR-L3": "QQYHKLPLS", "log10 Kd, replicates": "1.76 2.28 3.49 1.63 1.48 1.36", "mean, log10 nM": "2.00", "control signals": "0 of 18"}
{"CDR-L1": "HSSQSVLYESNSKNSVA", "CDR-L2": "HASTRES", "CDR-L3": "QQYHRLPLC", "log10 Kd, replicates": "0.55 0.72 0.08 0.22 1.63 0.88", "mean, log10 nM": "0.68", "control signals": "0 of 18"}
{"CDR-L1": "KFSQSVLYESENKNSVA", "CDR-L2": "WASTRES", "CDR-L3": "QDYHRLPLS", "log10 Kd, replicates": "1.44 1.94 1.86 1.87 2.55 2.74", "mean, log10 nM": "2.07", "control signals": "0 of 18"}
{"CDR-L1": "KSSQSVLYESRNKNSVA", "CDR-L2": "GASTRES", "CDR-L3": "QQYYRLPLS", "log10 Kd, replicates": "0.03 -0.16 -0.18 -0.23 0.18 0.14", "mean, log10 nM": "-0.04", "control signals": "0 of 18"}
{"CDR-L1": "KSSQSVINESRNLNSVA", "CDR-L2": "WASTRVS", "CDR-L3": "QQYHRLPLS", "log10 Kd, replicates": "1.62 1.50 1.53 1.57 1.44 1.28", "mean, log10 nM": "1.49", "control signals": "2 of 18 (3.24)"}
{"CDR-L1": "KSSQSVLYESRNKNSVA", "CDR-L2": "AAQTREV", "CDR-L3": "QQYHRLPLF", "log10 Kd, replicates": "2.41 1.93 n.d. 1.24 2.12 1.76", "mean, log10 nM": "1.89", "control signals": "0 of 18"}
{"CDR-L1": "KSSQEVTYESDNKYSVA", "CDR-L2": "WASTRES", "CDR-L3": "QSYHRLPLS", "log10 Kd, replicates": "n.d. 0.10 0.36 0.86 0.46 0.45", "mean, log10 nM": "0.45", "control signals": "0 of 18"}
{"CDR-L1": "KSSQSVLYEERNANSVA", "CDR-L2": "WASTRES", "CDR-L3": "QQYHRLPLS", "log10 Kd, replicates": "n.d. 0.66 n.d. n.d. n.d. 1.11", "mean, log10 nM": "0.89", "control signals": "0 of 18"}
{"CDR-L1": "KSSPSMLDESRSKNSVA", "CDR-L2": "KASTRES", "CDR-L3": "QQYHREPLS", "log10 Kd, replicates": "n.d. n.d. n.d. n.d. 3.88 n.d.", "mean, log10 nM": "3.88", "control signals": "1 of 18 (2.45)"}
{"CDR-L1": "KSSQSWLYESVNVNSVA", "CDR-L2": "WASHRES", "CDR-L3": "QQYHSLPLS", "log10 Kd, replicates": "1.64 1.64 1.77 1.47 1.35 1.44", "mean, log10 nM": "1.55", "control signals": "1 of 18 (2.22)"}
{"CDR-L1": "KAPQSVLYESRNHNSVA", "CDR-L2": "WASLRES", "CDR-L3": "QQYHRLPLS", "log10 Kd, replicates": "0.63 0.86 0.35 0.72 1.14 1.20", "mean, log10 nM": "0.82", "control signals": "1 of 18 (2.30)"}
{"CDR-L1": "KSSQSVLYESRNKNSVA", "CDR-L2": "WASTRES", "CDR-L3": "QQYHRLPLL", "log10 Kd, replicates": "1.10 n.d. 0.88 n.d. n.d. n.d.", "mean, log10 nM": "0.99", "control signals": "0 of 18"}
{"CDR-L1": "KSSQSVLEESRNKNSVA", "CDR-L2": "NASTRES", "CDR-L3": "QQTHRLPIS", "log10 Kd, replicates": "1.18 0.84 0.73 0.67 0.97 0.72", "mean, log10 nM": "0.85", "control signals": "1 of 18 (2.40)"}
{"CDR-L1": "KSPQSVLYDSRNKNSVA", "CDR-L2": "HASTRES", "CDR-L3": "QQYHRLPCS", "log10 Kd, replicates": "0.63 0.53 0.46 0.55 0.36 1.11", "mean, log10 nM": "0.60", "control signals": "3 of 18 (2.56)"}
{"CDR-L1": "KSSQSVLPESRNKNSVA", "CDR-L2": "QASTPES", "CDR-L3": "QQYMRLPLS", "log10 Kd, replicates": "0.64 0.12 0.09 0.23 0.65 0.71", "mean, log10 nM": "0.41", "control signals": "0 of 18"}
{"CDR-L1": "KSSQSALYESRNKNSVA", "CDR-L2": "WASTRES", "CDR-L3": "QQYHRLPWS", "log10 Kd, replicates": "n.d. n.d. n.d. 1.78 n.d. n.d.", "mean, log10 nM": "1.78", "control signals": "1 of 18 (1.45)"}
{"CDR-L1": "KSEQSVLGESRNKNNVA", "CDR-L2": "WASERES", "CDR-L3": "QQYSRLPLS", "log10 Kd, replicates": "0.46 0.02 -0.75 -0.52 0.01 0.00", "mean, log10 nM": "-0.13", "control signals": "0 of 18"}
{"CDR-L1": "KSSQSVLYESQNKNSVA", "CDR-L2": "WASTRES", "CDR-L3": "QQYHRLPLS", "log10 Kd, replicates": "n.d. n.d. n.d. n.d. n.d. n.d.", "mean, log10 nM": "n.d.", "control signals": "0 of 18"}
{"CDR-L1": "KSHQSVYYESRNKNSVA", "CDR-L2": "WASTRES", "CDR-L3": "QQYHVLPLS", "log10 Kd, replicates": "2.30 2.59 n.d. 2.04 2.36 n.d.", "mean, log10 nM": "2.32", "control signals": "0 of 18"}
{"CDR-L1": "KSSQSVLYESRNKNNVA", "CDR-L2": "WASTRES", "CDR-L3": "QQYHRLWLS", "log10 Kd, replicates": "n.d. n.d. n.d. n.d. n.d. n.d.", "mean, log10 nM": "n.d.", "control signals": "0 of 18"}
{"CDR-L1": "MLSVSVLYEDRNKNSVA", "CDR-L2": "GASTRES", "CDR-L3": "QQYHRLPLS", "log10 Kd, replicates": "0.32 0.00 -0.16 -0.17 0.29 0.06", "mean, log10 nM": "0.06", "control signals": "0 of 18"}
{"CDR-L1": "KISQSVLTESRNKNSVA", "CDR-L2": "SASTRES", "CDR-L3": "QQYHRLPLS", "log10 Kd, replicates": "-0.03 -0.16 -0.16 -0.51 -0.39 -0.05", "mean, log10 nM": "-0.22", "control signals": "0 of 18"}
{"CDR-L1": "KSSQSVLEESRNKNCVA", "CDR-L2": "WASTRES", "CDR-L3": "QQYHRLPLS", "log10 Kd, replicates": "0.99 0.88 1.52 1.65 1.57 1.21", "mean, log10 nM": "1.30", "control signals": "0 of 18"}
{"CDR-L1": "YSSQSVLYVSRAKNSVA", "CDR-L2": "AAYDRES", "CDR-L3": "QQYHRLPLS", "log10 Kd, replicates": "n.d. n.d. n.d. n.d. n.d. n.d.", "mean, log10 nM": "n.d.", "control signals": "1 of 18 (2.04)"}
{"CDR-L1": "KWSQSVLEESRTKNSVA", "CDR-L2": "TASTRES", "CDR-L3": "QQQHRLPLS", "log10 Kd, replicates": "1.54 1.31 1.39 0.81 1.59 1.55", "mean, log10 nM": "1.37", "control signals": "2 of 18 (2.66)"}
{"CDR-L1": "KMSQSVLYESKNKNSVA", "CDR-L2": "MASTRES", "CDR-L3": "QQYCRLPLS", "log10 Kd, replicates": "0.85 0.42 0.56 0.45 0.52 0.96", "mean, log10 nM": "0.63", "control signals": "3 of 18 (2.90)"}
{"CDR-L1": "KISPSVLGESWNKNSVA", "CDR-L2": "SASTRES", "CDR-L3": "QDYHRLPLS", "log10 Kd, replicates": "n.d. 2.47 n.d. n.d. n.d. n.d.", "mean, log10 nM": "2.47", "control signals": "3 of 18 (2.70)"}
{"CDR-L1": "KSSQPVLYESRNKNSVA", "CDR-L2": "AASKRES", "CDR-L3": "QQYHRLPLS", "log10 Kd, replicates": "0.64 0.40 0.51 0.11 0.29 0.36", "mean, log10 nM": "0.38", "control signals": "1 of 18 (1.76)"}
{"CDR-L1": "KSSQSDPYESRNKNSVA", "CDR-L2": "GASTRES", "CDR-L3": "QQYARLPLS", "log10 Kd, replicates": "0.03 -0.26 -0.45 -0.61 -0.37 -0.26", "mean, log10 nM": "-0.32", "control signals": "0 of 18"}
{"CDR-L1": "KISQSVLYESRNKNSVA", "CDR-L2": "AASTRCS", "CDR-L3": "QQYHRLPLS", "log10 Kd, replicates": "0.12 -0.07 -0.06 -0.03 -0.06 0.38", "mean, log10 nM": "0.05", "control signals": "1 of 18 (2.51)"}
{"CDR-L1": "KSSQSVLYESRNKNSVA", "CDR-L2": "DASTQES", "CDR-L3": "QQYHRLPLS", "log10 Kd, replicates": "0.93 0.37 0.59 0.21 0.73 0.47", "mean, log10 nM": "0.55", "control signals": "0 of 18"}

The opening 2 entries, copied out:

{"CDR-L1": "RQSQSVLVESSNKSSVA", "CDR-L2": "SASTRES", "CDR-L3": "QQYHRLPLS", "log10 Kd, replicates": "1.40 0.85 1.49 1.41 1.13 1.37", "mean, log10 nM": "1.27", "control signals": "0 of 18"}
{"CDR-L1": "KSSQSVLEESRNKNSVA", "CDR-L2": "WASTRES", "CDR-L3": "QQYHKLPLS", "log10 Kd, replicates": "1.76 2.28 3.49 1.63 1.48 1.36", "mean, log10 nM": "2.00", "control signals": "0 of 18"}

The authors averaged sequences with at least three values out of six and counted those with two or fewer as poor binders. Three control strains display no target. For all light chain designs, 4% of the pairings with them gave a signal, with a median of 2.64 and one signal in twenty below 1.59, so weak values seen in few replicates may be background. The control count says in how many pairings with the empty strains this scFv gave a signal, with their mean in brackets. The parent sequence was in this pool as ten entries: three were never detected, three once, and four in most replicates, with averages from 0.34 to 2.37.

Data: MIT Lincoln Laboratory AlphaSeq set, Li et al. 2023, doi:10.1038/s41467-023-39022-2, as distributed in FLAb.